Earlier results on two substances are cited in patent US10118955B2, “C-terminal fragments of glucagon-like peptide-1 (GLP-1)” (The General Hospital Corporation, priority 2008, dated 2018).

Protein sequences, listed by entry. Tags and fused reporters are not part of them. Residues count along the entry.
UniProt P43220, 24-463: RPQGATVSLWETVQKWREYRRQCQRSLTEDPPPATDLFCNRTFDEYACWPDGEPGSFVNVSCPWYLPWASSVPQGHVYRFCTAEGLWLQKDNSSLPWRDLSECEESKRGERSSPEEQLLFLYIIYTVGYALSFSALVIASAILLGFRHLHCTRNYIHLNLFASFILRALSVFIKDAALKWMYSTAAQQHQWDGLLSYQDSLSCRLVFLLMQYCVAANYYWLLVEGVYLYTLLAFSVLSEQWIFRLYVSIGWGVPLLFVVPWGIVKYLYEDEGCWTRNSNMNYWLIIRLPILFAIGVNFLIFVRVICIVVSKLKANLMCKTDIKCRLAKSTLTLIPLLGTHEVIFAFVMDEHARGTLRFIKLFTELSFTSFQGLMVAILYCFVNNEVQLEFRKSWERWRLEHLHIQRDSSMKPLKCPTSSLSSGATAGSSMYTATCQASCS

The target in the data set is GLP-1 GPCR (Homo sapiens, UniProt P43220). As to conditions: (nM); cited from earlier work.

As for GLP-1(7-37), the “binding affinity to the GLP-1 GPCR” value is given as “high affinity”.

Consider GLP-1(7-36)amide, for which the “binding affinity to the GLP-1 GPCR” value is listed as “high affinity”.
